Measurements published in ChEMBL document CHEMBL5512657, “Design, synthesis and evaluation of a pyrazolo[3,4-d]pyrimidine derivative as a novel and potent TGFβ1R1 inhibitor” (Eur J Med Chem, 2024).
Activity calls are given as the source filed them. The calls are words filed in the database; no cut-off is given here.

Sequences of proteins named here, by UniProt entry; tags and fusion partners are left off.
UniProt Q8BUN5, whole entry, looked up: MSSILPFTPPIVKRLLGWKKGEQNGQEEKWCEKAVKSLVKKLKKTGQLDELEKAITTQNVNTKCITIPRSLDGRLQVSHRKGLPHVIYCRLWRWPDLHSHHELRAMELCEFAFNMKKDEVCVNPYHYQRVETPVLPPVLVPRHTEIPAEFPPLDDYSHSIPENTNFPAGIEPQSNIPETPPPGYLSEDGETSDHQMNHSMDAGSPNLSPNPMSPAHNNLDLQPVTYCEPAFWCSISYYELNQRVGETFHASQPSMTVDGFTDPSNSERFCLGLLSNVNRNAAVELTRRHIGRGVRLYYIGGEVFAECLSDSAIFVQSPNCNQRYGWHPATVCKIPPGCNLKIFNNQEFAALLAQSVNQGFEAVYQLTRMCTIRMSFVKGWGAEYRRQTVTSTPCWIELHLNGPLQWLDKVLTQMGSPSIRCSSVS

Columns and labels:
[1] = molecular target: T1, TGF-beta receptor type-1 (Homo sapiens) (UniProt P36897); experiment: Inhibition of ALK5 (unknown origin) at 25 uM incubated for 2 hrs in presence of ATP by ADP-Glo reagent based luminescence plate reader analysis relative to control
T1 sequence (whole entry): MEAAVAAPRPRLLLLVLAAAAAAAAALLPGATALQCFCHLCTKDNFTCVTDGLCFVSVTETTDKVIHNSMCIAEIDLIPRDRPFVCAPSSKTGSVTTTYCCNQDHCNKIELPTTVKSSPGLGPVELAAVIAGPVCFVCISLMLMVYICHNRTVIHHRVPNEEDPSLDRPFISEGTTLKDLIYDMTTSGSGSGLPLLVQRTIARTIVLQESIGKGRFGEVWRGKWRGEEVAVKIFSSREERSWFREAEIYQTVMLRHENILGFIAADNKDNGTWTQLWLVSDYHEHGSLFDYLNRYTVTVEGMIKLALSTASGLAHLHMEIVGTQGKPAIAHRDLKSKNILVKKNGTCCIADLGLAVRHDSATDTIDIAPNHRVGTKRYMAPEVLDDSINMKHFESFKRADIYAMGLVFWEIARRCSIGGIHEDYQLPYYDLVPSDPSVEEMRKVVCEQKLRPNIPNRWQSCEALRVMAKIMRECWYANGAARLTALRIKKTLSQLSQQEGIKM

[2] = molecular target: Mothers against decapentaplegic homolog 3 (Mus musculus) (UniProt Q8BUN5); experiment: Inhibition of SMAD3 phosphorylation in mouse NIH3T3 cells preincubated with compound for 1 hrs followed by TGF-beta1 stimulation by Western blot analysis; format: cell-based; conditions: dose 0.05-2 µM
Panc02 = experiment: Antitumor activity against mouse Panc02 cells implanted in C57BL/6J mouse model assessed as downregulation of Ki67 expression in tumor at 10 mg/kg, ip administered every other day for 24 days by immunohistochemistry analysis; format: functional, organism-based; conditions: time 24.0 day
PANC-1 = experiment: Antitumor activity against human PANC-1 cells xenografted in C57BL/6J mouse model assessed as downregulation of Ki67 expression in tumor at 10 mg/kg, ip administered every other day for 24 days by immunohistochemistry analysis; format: functional, organism-based; conditions: time 24.0 day

Structure (SMILES) | inhibition [1] [%] | also measured
CC(C)(C)OC(=O)N1CCC(Cn2ncc3c(N)ncnc32)CC1 | 70 | 
CC(=O)N1CCC(CCn2nc(-c3ccc4[nH]cc(C)c4c3)c3c(N)ncnc32)CC1 |  | inhibition [2]: Dose-Dependent Effect
Nc1ccn([C@@H]2O[C@H](CO)[C@@H](O)C2(F)F)c(=O)n1 [GEMCITABINE] |  | Activity (Panc02): Active; Activity (PANC-1): Active

Continued, in another order:

inhibition [1] [%] | Structure (SMILES) | also measured
49 | c1ccc2ncc(-c3ccc4[nH]ccc4c3)cc2c1 | 
52 | CC(=O)N1CCN(Cc2cccc(-c3ccc4[nH]ccc4c3)c2)CC1 | 
